The values below are quoted from earlier work in patent publication US10829484B2, “Compounds and methods for kinase modulation, and indications therefor” (Plexxikon Inc., priority 2015, dated 2020).

For this data set, the system named is FLT3-ITD+ AML. To be noted: relapsed or chemotherapy-refractory FLT3-ITD+ AML patients, monotherapy; cited from earlier work.

Regarding `CC(C)(C)c1cc(NC(=O)Nc2ccc(-c3cn4c(n3)sc3cc(OCCN5CCOCC5)ccc34)cc2)no1` [quizartinib], the “composite complete remission (CRc) rate” value is “about 50%”.
